Reference: patent publication US20190125867A1, “THERAPEUTIC AGENT FOR SOLID CANCER” (IDAC THERANOSTICS, INC., priority 2014, published 2019)

How the values were obtained:
[1] = 10 mg/kg twice a week for two weeks
[2] = system: mouse melanoma cell line B16F10; experiment: Tumor volume in C57BL/6 mice transplanted with melanoma cell line B16F10; assay type: in vivo; conditions: Example 7 (small molecule anticancer agents); Day 15; anti-CD4 0.2 mg Day 5, 9; OXA 10, GEM 20, CPA 10 mg/kg Day 5, 9, 12, 16; FIG. 23
Experimental: On Day −2 (two days before the cancer cell transplantation), Day 0 (=day of cancer cell transplantation), Day 3, Day 5, Day 9, or Day 12, 0.2 mg of an anti-CD4 antibody (GK1.5; an antibody known to be capable of causing depletion of CD4+ cells in the mouse body by the CDC activity; manufactured by BioXcell) was intraperitoneally administered at one time. The solid tumor diameter was measured on Day 14, and the tumor volume was calculated by short diameter×short diameter×long diameter×π/6.
On Day 5, 3.125 μg, 12.5 μg, 50 μg, or 200 μg of the anti-CD4 antibody was administered (negative control group: no antibody was administered).
The solid tumor diameter in each mouse was measured, and the tumor volume was calculated (short diameter×short diameter×long diameter×π/6).
Thereafter, antibody administration was carried out as follows (Day 0=day of cancer cell transplantation).
The tumor volume was calculated (short diameter×short diameter×long diameter×π/6) from the solid tumor diameter measured on Day 18.
The tumor volume was calculated (short diameter×short diameter×long diameter×π/6) from the solid tumor diameter measured on Day 15.
The tumor volume was calculated (short diameter×short diameter×long diameter×π/6) from the solid tumor diameter measured on Day 16.

In the case of `O=C1[O][Pt]2([NH][C@@H]3CCCC[C@H]3[NH]2)[O]C1=O` [OXA, Oxaliplatin], the “side effect observed in mice” value [1] is reported as “weight loss was observed” and the “growth of solid tumor relative to control group” value [2] is reported as 46%.
